Reference: PMC12348509, “Classical Paal-Knorr Cyclization for Synthesis of Pyrrole-Based Aryl Hydrazones and In Vitro/In Vivo Evaluation on Pharmacological Models of Parkinson’s Disease” (Molecules, 2025)

Test system: rat brain mitochondria
Assay: t-BuOOH-induced oxidative stress in isolated rat brain mitochondria
Details: vs untreated mitochondria

Which results are given for `CC(C)(C)OO`?
decrease of GSH level in mitochondria by the toxic agent alone: 50%; increase of MDA production in mitochondria by the toxic agent alone: 150%
